The results in this text go back to PubChem BioAssay (Tox21).

Structures are written as SMILES. “And” between values parts separate entries of the source, which are not always exact repeats. Equal entries are not always repeated. The entries are a selection whose mix differs from that of the whole data set. Results filed as inconclusive are left out. The source made the active and inactive calls. Unless noted, calls follow the shape of the dose curve; as a rule, active = well fitted curve in the direction sought with a large enough effect in the repeat runs; inconclusive = weak or mixed curves; inactive = no such curve, though single readings can be large; an effect the other way counts as inactive or inconclusive.

Test [1] in a line: qHTS assay to test for compound auto fluorescence at 590 nm (red) in HepG2 cells (AID 720674). The conditions noted are these: HepG2 autofluorescence, red 540/590 nm, 1 h; at 91.3 µM (top of the series) unless noted. In outline:
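HepG2 cells, 2,000 per well in MEM with 10% FBS, attached overnight at 37 C, then got 23 nL compound or DMSO. After 1 hr at 37 C, 5% CO2, red fluorescence was read at 540/590 nm against Rose Bengal sodium as reference.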
(Quantitative high-throughput screening tests each substance at several concentrations.)

Test [2] in a line: qHTS assay to test for compound auto fluorescence at 535 nm (green) in HepG2 cells (AID 720675). The conditions noted are these: green autofluorescence 485/535 nm, 1 h; at 91.3 µM (top of the series) unless noted.
The nature of test [3]: qHTS assay to test for compound auto fluorescence at 460 nm (blue) in HEK293 cells (AID 720678). The conditions noted are these: blue autofluorescence 405/460 nm; at 91.3 µM (top of the series) unless noted. In short, it runs like this:
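Measured: blue fluorescence (Ex 405/Em 460 nm) of compound-treated HEK293 cells, incubated overnight at 37C with 5% CO2 and scaled to triamterene equivalents.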

The nature of test [4]: qHTS assay to test for compound auto fluorescence at 590 nm (red) in HEK293 cells (AID 720679). The conditions noted are these: red autofluorescence 540/590 nm; at 91.3 µM (top of the series) unless noted. In short, it runs like this: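 Using HEK293 cells at 2,000 per well, the screen added 23 nL of each compound after cell attachment and incubated overnight (37C, 5% CO2). The plate reader then captured red-label fluorescence, Ex/Em 540/590nm.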

The nature of test [5]: qHTS assay to test for compound auto fluorescence at 535 nm (green) in HEK293 cells (AID 720680). The conditions noted are these: green autofluorescence 485/535 nm; at 91.3 µM (top of the series) unless noted.
The nature of test [6]: qHTS assay to test for compound auto fluorescence at 535 nm (green) in HEK293 cell free culture (AID 720682). The conditions noted are these: cell-free medium, green autofluorescence 485/535 nm, active compounds read high; at 91.3 µM (top of the series) unless noted. In outline:
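Using fluorescein as calibrant, autofluorescence was quantified at 485/535 nm in cell-free DMEM containing 10% FBS after pintool addition of compound or vehicle.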

A short description of test [7]: qHTS assay to test for compound auto fluorescence at 590 nm (red) in HEK293 cell free culture (AID 720683). The conditions noted are these: cell-free medium autofluorescence, Ex540/Em590 red; at 91.3 µM (top of the series) unless noted. In outline: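 Cell-free wells of DMEM with 10% FBS received compound, and intrinsic fluorescence was read at excitation/emission 540/590 nm. Values expressed as equivalence to Rose Bengal sodium.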

The nature of test [8]: qHTS assay for small molecules that induce genotoxicity in human embryonic kidney cells expressing luciferase-tagged ATAD5 - cell viability (AID 651634; calls by dose curve; also: nearly all actives have a fitted effect of over 25% in size; also: potency is read from the fitted curve at half-maximal effect). In outline:
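HEK293T cells carrying luciferase-tagged ATAD5, 2,000 cells/well, exposed to compound for 15.5 hr at 37C. Viability read as live-cell protease activity by CellTiter-Fluor fluorescence after 30 min at 37C.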

Test [9] is described as follows: qHTS assay for small molecule disruptors of the mitochondrial membrane potential - cell viability (AID 720634; calls by dose curve; also: nearly all actives have a fitted effect of over 20% in size; also: potency is read from the fitted curve at half-maximal effect). In short, it runs like this:
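HepG2 cells, 2,000 per well, attached overnight, then treated 1 hr at 37 C, 5% CO2. Viability read as ATP by CellTiter-Glo luminescence after 30 min at room temperature. Read in the same wells as the m-MPI membrane-potential dye assay.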

A short description of test [10]: qHTS assay for small molecule disruptors of the mitochondrial membrane potential (AID 720635). Also: potency is read from the fitted curve at half-maximal effect.
% is scaled to controls: 0 for no effect and ±100 for the full control effect.

Consider `N#CSc1ccc([N+](=O)[O-])cc1[N+](=O)[O-]`, for which the fluorescence, relative to Rose Bengal in test [1] is inactive: 0.317%. For the same compound, in [2], the fluorescence, % of fluorescein control is inactive: -0.194%. Besides, in test [3], the fluorescence, % of triamterene is inactive: -0.523%. Further, the figures for the fluorescence, % of fluorescent control in test [4] and in [7] were inactive: -0.124% and inactive: 0.015%, respectively. Further, the fluorescence, % of fluorescein in test [5] was inactive: -0.187%. The activity change in test [6] was inactive: -0.0479%.

As to `O=[p+]1oc2ccccc2c2ccccc21` (stereo not given), the Potency entry in test [8] and in test [9] was “inactive” each time. In addition, the fluorescence, relative to Rose Bengal in test [1] was inactive: -0.4%. In addition, in test [2], the fluorescence, % of fluorescein control was inactive: -0.016%. Also, the fluorescence, % of triamterene in [3] is inactive: -0.129%. The fluorescence, % of fluorescent control in [4] was inactive: 0.0921%; in test [7], inactive: -0.215%. Also, the fluorescence, % of fluorescein in test [5] was inactive: 0.114%. Moreover, in test [6], the activity change is inactive: 0.0229%.

With `O=C1C2CC=CCC2C(=O)N1SC(Cl)(Cl)C(Cl)Cl` (stereo not given), the fluorescence, relative to Rose Bengal in test [1] is inactive: -0.475% and inactive: 0.319%. Further, the fluorescence, % of fluorescein control in [2] is inactive: 0.0917% and inactive: -0.0077%. Besides, the fluorescence, % of triamterene in test [3] was inactive: 0.142% and inactive: 0.255%. For the same compound, the fluorescence, % of fluorescent control in [4] is inactive: -0.366% and inactive: 0.101%; in test [7], inactive: -0.0411% and inactive: 0.0291%. In test [5], the fluorescence, % of fluorescein was inactive: -0.0568% and inactive: 0.0242%. For the same compound, the activity change in [6] was inactive: -0.0102% and inactive: 0.013%.

Regarding `Cc1cc([N+](=O)[O-])cc([N+](=O)[O-])c1O`, the Potency in [9] was active: 4.33 µM and active: 1.72 µM; in test [10], active: 686 nM and active: 609 nM. In test [1], the fluorescence, relative to Rose Bengal is inactive: -0.0746% and inactive: -0.755%. In addition, the fluorescence, % of fluorescein control in test [2] is inactive: -0.0232% and inactive: -0.342%. Also, the fluorescence, % of triamterene in test [3] was inactive: -0.976% and inactive: -1.02%. For the same compound, the fluorescence, % of fluorescent control in [4] is inactive: -0.0056% and inactive: -1.15%; in test [7] it was inactive: -0.577% and inactive: -0.473%. The fluorescence, % of fluorescein in [5] is inactive: -0.143% and inactive: -0.398%. In [6], the activity change was inactive: -0.112% and inactive: -0.29%.

Take `CN(C(=O)Cc1cccc2occc12)[C@H]1CC[C@@]2(CCCO2)C[C@@H]1N1CCCC1`: the Potency entry in test [8] and in test [9] was “inactive” each time. Also, in test [1], the fluorescence, relative to Rose Bengal was inactive: 0.0461%. Moreover, the fluorescence, % of fluorescein control in [2] is inactive: 0.0081%. In [3], the fluorescence, % of triamterene is inactive: 0.0146%. Further, the results for the fluorescence, % of fluorescent control in test [4] and in [7] were inactive: 0.0379% and inactive: 0.275%, respectively. Moreover, the fluorescence, % of fluorescein in test [5] is inactive: 0.118%. Besides, the activity change in test [6] is inactive: 0.0971%.

Take `O=P(Cl)(Cl)c1ccccc1`: the Potency result in test [8], in test [9] and in [10] was “inactive” in each case. For the same compound, the fluorescence, relative to Rose Bengal in test [1] was inactive: -0.13%. Further, the fluorescence, % of fluorescein control in [2] was inactive: 0.0048%. Also, in test [3], the fluorescence, % of triamterene was inactive: -0.0086%. For the same compound, the fluorescence, % of fluorescent control is inactive: -0.522% in [4] and inactive: -0.0722% in test [7]. For the same compound, in test [5], the fluorescence, % of fluorescein is inactive: 0.0615%. In addition, in test [6], the activity change is inactive: 0.0578%.

Regarding `CN(C(=O)Cc1ccc(Cl)c(Cl)c1)[C@H]1CC[C@@]2(CCCO2)C[C@@H]1N1CCCC1`, the Potency result in test [8], in test [9] and in test [10] was “inactive” throughout. For the same compound, the fluorescence, relative to Rose Bengal in test [1] was inactive: 0.0887% [at 46 µM]. Also, in test [2], the fluorescence, % of fluorescein control was inactive: 0.203% [at 46 µM]. Moreover, the fluorescence, % of triamterene in test [3] is inactive: 0.025% [at 46 µM]. For the same compound, the figures for the fluorescence, % of fluorescent control in test [4] and in [7] were inactive: -0.183% [at 46 µM] and inactive: -0.145% [at 46 µM], respectively. Besides, in test [5], the fluorescence, % of fluorescein is inactive: 0.0277% [at 46 µM]. In addition, the activity change in test [6] was inactive: 0.12% [at 46 µM].

As to `O=P(Cl)(Oc1ccccc1)Oc1ccccc1`, the Potency entry in test [8] and in test [9] was “inactive” in each case. Also, the fluorescence, relative to Rose Bengal in [1] is inactive: -0.316%. For the same compound, the fluorescence, % of fluorescein control in test [2] is inactive: 0.0743%. In test [3], the fluorescence, % of triamterene was inactive: 0.0439%. Moreover, the fluorescence, % of fluorescent control in test [4] was inactive: 0.139%; in [7], inactive: 0.0186%. Further, the fluorescence, % of fluorescein in test [5] is inactive: 0.0327%. Also, the activity change in test [6] is inactive: -0.0131%.

For `COC(=O)Cl`, the Potency result in test [8], in test [9] and in [10] was “inactive” throughout. Besides, in test [1], the fluorescence, relative to Rose Bengal is inactive: 0.194%. Also, the fluorescence, % of fluorescein control in [2] was inactive: 0.0166%. Also, the fluorescence, % of triamterene in test [3] was inactive: 0.0188%. Besides, the fluorescence, % of fluorescent control in [4] was inactive: -0.282%; in test [7], inactive: 0.323%. Moreover, the fluorescence, % of fluorescein in [5] was inactive: 0.017%. For the same compound, the activity change in test [6] was inactive: -0.0127%.

Regarding `O=[As]c1ccccc1` (stereo not given), the Potency in test [8] is active: 864 nM; in [10] it was active: 686 nM. For the same compound, in [1], the fluorescence, relative to Rose Bengal was inactive: -0.217%. For the same compound, the fluorescence, % of fluorescein control in test [2] was inactive: -0.0071%. Moreover, in test [3], the fluorescence, % of triamterene is inactive: 0.108%. Further, the fluorescence, % of fluorescent control in [4] is inactive: -0.13%; in [7] it was inactive: -0.232%. Moreover, the fluorescence, % of fluorescein in test [5] is inactive: 0.0008%. The activity change in [6] is inactive: -0.0111%.

Turning to `CN(N=O)C(=N)N[N+](=O)[O-]`, the Potency result in test [8] and in test [9] was “inactive” each time. Besides, the fluorescence, relative to Rose Bengal in [1] is inactive: -0.0991%. In addition, the fluorescence, % of fluorescein control in test [2] was inactive: 0.0278%. In addition, the fluorescence, % of triamterene in test [3] is inactive: 0.0363%. Moreover, in [4], the fluorescence, % of fluorescent control is inactive: -0.258%. In test [5], the fluorescence, % of fluorescein is inactive: -0.0339%. Also, the activity change in test [6] was inactive: -0.0225%.

Regarding `CC(C)CCCCCCCOP(OCCCCCCCC(C)C)Oc1ccccc1`, the Potency result in [8] and in test [9] was “inactive” throughout. In test [1], the fluorescence, relative to Rose Bengal was inactive: -0.119%. In addition, the fluorescence, % of fluorescein control in [2] is inactive: -0.0113%. The fluorescence, % of triamterene in test [3] was inactive: 0.158%. Moreover, the fluorescence, % of fluorescent control is inactive: 0.0377% in test [4] and inactive: -0.158% in test [7]. Moreover, the fluorescence, % of fluorescein in test [5] is inactive: -0.129%. For the same compound, in test [6], the activity change is inactive: -0.0339%.

With `CCCCC(CC)CO[P+](=O)OCC(CC)CCCC` (stereo not given), the Potency entry in test [8], in test [9] and in [10] was “inactive” throughout. Besides, the fluorescence, relative to Rose Bengal in test [1] is inactive: 0.0002%. In addition, in [2], the fluorescence, % of fluorescein control was inactive: -0.0242%. In [3], the fluorescence, % of triamterene was inactive: 0.0368%. Also, the fluorescence, % of fluorescent control in test [4] was inactive: -0.0304%; in test [7] it was inactive: -0.0035%. In [5], the fluorescence, % of fluorescein was inactive: 0.0122%. Also, the activity change in [6] is inactive: -0.0039%.

For `COP(=S)(Cl)OC`, the Potency result in [8] and in [9] was “inactive” each time. In test [1], the fluorescence, relative to Rose Bengal is inactive: 0.0566%. Also, the fluorescence, % of fluorescein control in [2] is inactive: -0.271%. Also, in [3], the fluorescence, % of triamterene was inactive: -0.0482%. Moreover, the results for the fluorescence, % of fluorescent control in [4] and in test [7] were inactive: 0.155% and inactive: -0.136%, respectively. Besides, in [5], the fluorescence, % of fluorescein is inactive: -0.134%. The activity change in test [6] was inactive: -0.236%.
